These are literature values, as cited in publication PMC9543247 (Angewandte Chemie (International Ed. in English), 2022).

In this data set the test system is HDMX.

On to LTFEHYWAQLTS [pDI], for which the “affinity for HDMX (in words)” value is listed as “high affinity”.
